In the data set the test system is Caco-2 cell monolayers. As to the kind of experiment: Bidirectional (AP→BL, BL→AP) drug transport across Caco-2 cell monolayers in transwells: cumulative transport, Papp, efflux ratio; HPLC or radiolabeled assay. Background: Caco-2 monolayers are a common model of the intestinal barrier.
The mark [1] stands for this setting: PZQ alone (SQV experiment), 180 min, samples 1-3.
Setting [2] is: SQV alone, 240 min, individual experiments 1-3.

Each structure is given as a SMILES string. Values joined by “and” are separate entries in the source; they are usually repeats but may differ in a detail not shown here. Identical values can stand only once.

As to `CC[C@H](C)[C@H]1O[C@]2(CC[C@@H]1C)C[C@@H]1C[C@@H](C/C=C(\C)[C@@H](O[C@H]3C[C@H](OC)[C@@H](O[C@H]4C[C@H](OC)[C@@H](O)[C@H](C)O4)[C@H](C)O3)[C@@H](C)/C=C/C=C3\CO[C@@H]4[C@H](O)C(C)=C[C@@H](C(=O)O1)[C@]34O)O2` [IVM, ivermectin], under “120 min, mean n=3”, the “Basal to apical transport (cumulative, receiver), Mean” value stood at 1.36 pmol. For the same molecule, the “Basal to apical transport” value is 0.01353 pmol (IVM alone (SQV experiment), 60 min, samples 1-3); 0.02547 pmol and 0.02552 pmol (IVM alone (SQV experiment), 180 min, samples 1-3); 16.19 pmol (IVM alone, 60 min, individual experiments 1-3); 25.52 pmol (IVM alone, 180 min, individual experiments 1-3); 32.09 pmol (IVM alone, 240 min, individual experiments 1-3); 0.01356 pmol ([3H] IVM alone, 60 min, individual experiments 1-3). Besides, the “Mean ER value (efflux ratio, PappBL-AP/PappAP-BL)” value (after 60 min (3600 sec), mean of individual sample ERs (n=3), drug alone, or label 'A + B' = A in presence of B) was 1.19.

On to `O=C(C1CCCCC1)N1CC(=O)N2CCc3ccccc3C2C1` (centres unmarked) [PZQ, praziquantel], for which, for the setting “PZQ alone (EFV experiment), 60 min, mean”, the “Apical to basal transport Mean” value was 31.65 pmol. Further, the “Basal to apical transport” value is, setting by setting: (PZQ alone (EFV experiment), 240 min, samples 1-3) 51.94 pmol; (PZQ alone (NVP experiment), 180 min, samples 1-3) 51.94 pmol; under setting [1], 22.42 pmol. For the same molecule, the “Apical to basal transport” value under setting [1] is 26.92 pmol and 26.96 pmol.

In the case of `CC(C)(C)NC(=O)[C@@H]1C[C@@H]2CCCC[C@@H]2CN1C[C@@H](O)[C@H](Cc1ccccc1)NC(=O)[C@H](CC(N)=O)NC(=O)c1ccc2ccccc2n1` [SQV, saquinavir], the “Basal to apical transport” value (SQV alone (PZQ experiment), 240 min, samples 1-3) worked out at 20.22 pmol. In addition, under setting [2], the “Apical to basal transport” value was 11.24 pmol and the “Basal to apical transport” value worked out at 22.46 pmol. Also, where the note is “SQV alone, after 60 min, samples 1-3”, the “Apical to basal transport Conc. Apical” value was 27.69 pmol.
